# Test results reported in patent US4999359A, “Heterocyclic ethylene diamine compounds and their pharmaceutical compositions and methods” (Dr. Lo Zambeletti S.p.A., priority 1988, dated 1991).
# By UniProt entry, the sequences of proteins in these tests, tags left out. Where a name states a change or a piece, a line headed by the entry shows the natural chain unless it says otherwise. Residues count along the entry.
# UniProt A0ACM8Q262, 1-400: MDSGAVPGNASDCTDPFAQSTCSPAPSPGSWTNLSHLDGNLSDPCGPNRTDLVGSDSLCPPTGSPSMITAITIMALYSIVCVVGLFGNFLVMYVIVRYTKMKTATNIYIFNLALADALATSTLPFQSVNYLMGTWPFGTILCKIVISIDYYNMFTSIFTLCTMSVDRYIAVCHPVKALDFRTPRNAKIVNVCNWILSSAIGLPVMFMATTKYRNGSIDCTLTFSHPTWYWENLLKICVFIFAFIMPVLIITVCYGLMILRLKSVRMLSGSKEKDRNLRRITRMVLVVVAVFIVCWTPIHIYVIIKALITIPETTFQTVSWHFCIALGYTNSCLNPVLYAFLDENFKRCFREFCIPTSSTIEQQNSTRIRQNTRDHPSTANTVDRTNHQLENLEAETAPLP
# UniProt P41144: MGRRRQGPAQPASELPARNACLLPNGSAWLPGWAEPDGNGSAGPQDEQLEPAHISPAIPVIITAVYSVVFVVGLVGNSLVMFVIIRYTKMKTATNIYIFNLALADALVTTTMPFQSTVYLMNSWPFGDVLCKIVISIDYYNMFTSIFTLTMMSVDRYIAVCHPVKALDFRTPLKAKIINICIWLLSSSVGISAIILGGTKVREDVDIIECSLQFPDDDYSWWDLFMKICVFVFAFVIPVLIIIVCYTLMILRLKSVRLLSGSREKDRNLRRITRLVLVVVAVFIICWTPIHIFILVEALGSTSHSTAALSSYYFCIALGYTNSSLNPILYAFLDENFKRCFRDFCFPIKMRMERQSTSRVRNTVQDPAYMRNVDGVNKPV
# Key:
# mice (tail-flick) = assay: Mouse Tail-flick test; type: in vivo; settings: s.c., 30 min after dosing, calculated for the free base
# μ opioid receptor = μ opioid receptor (Cavia porcellus, UniProt A0ACM8Q262); assay: Binding to μ sites (3H-DAGO), receptor affinity study; settings: read-out: OPIATE RECEPTORS BINDING ki MU, guinea pig brain homogenate, 40 min, 25° C.
# kappa opioid receptors = kappa opioid receptors (Cavia porcellus, UniProt P41144); assay: Binding to K sites (tritiated Ethylketocyclazocine), receptor affinity study; settings: read-out: OPIATE RECEPTORS BINDING ki KAPPA; guinea pig brain homogenate; 3H-Ethylketocyclazocine with 100 nM DADLE and 100 nM DAGO; 40 min, 25° C.
smiles,measurement,setting,value
CN(C(=O)Cc1ccc(Cl)c(Cl)c1)C(CN1CCCC1)c1ccsc1 (stereo not drawn),ANALGESIA TAIL-FLICK ED50 (a),mice (tail-flick),0.127 mg/kg
same,Ki,μ opioid receptor,144 nM
same,Ki,kappa opioid receptors,1.99 nM
